Measured values published in PMC11906766 (Scientific Reports, 2025).

Chains of the proteins cited; added tags and fusions are not shown.
UniProt P27338, whole entry: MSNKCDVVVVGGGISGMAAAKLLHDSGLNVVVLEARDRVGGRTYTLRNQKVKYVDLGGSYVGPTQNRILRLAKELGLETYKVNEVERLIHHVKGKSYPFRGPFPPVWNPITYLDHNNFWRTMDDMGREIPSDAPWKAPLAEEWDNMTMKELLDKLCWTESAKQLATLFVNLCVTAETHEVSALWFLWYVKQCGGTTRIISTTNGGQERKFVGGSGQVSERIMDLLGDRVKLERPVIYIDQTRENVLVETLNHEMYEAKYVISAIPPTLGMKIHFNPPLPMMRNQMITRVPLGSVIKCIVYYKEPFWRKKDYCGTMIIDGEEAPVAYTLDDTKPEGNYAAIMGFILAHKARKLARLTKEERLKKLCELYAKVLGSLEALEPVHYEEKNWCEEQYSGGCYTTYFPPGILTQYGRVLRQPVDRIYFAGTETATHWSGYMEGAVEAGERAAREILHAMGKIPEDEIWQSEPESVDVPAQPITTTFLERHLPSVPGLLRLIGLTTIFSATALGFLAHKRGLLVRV

What was measured:
MAO-B [1] = target: T1, MAO-B (Homo sapiens, UniProt P27338); assay: hMAO-B inhibition assay; format: biochemical
MAO-B [2] = target: T1, MAO-B

Selectivity Index (SI) (MAO-B [1])	residual MAO-B activity after dialysis (MAO-B [2])	residual MAO-B activity, undialysis group (MAO-B [2])	Structure (SMILES)
> 3			O=C(C=Cc1ccccc1)c1ccccc1 [Compound 1, 1,3-diphenyl-2-propen-1-one, reference compound]
	90.6	47.1	C[C@H](NCc1ccc(OCc2cccc(F)c2)cc1)C(N)=O [Safinamide, safinamide]
